How the values were obtained:
PTPRJ = PTPRJ (Homo sapiens, UniProt Q12913); test: pNPP hydrolysis by PTPRJ phosphatase; details: read-out: PTPRJ IC50; untitled table after Table 4; mean, SEM in wrapped line
PTPRF = PTPRF (Homo sapiens, UniProt P10586); test: pNPP hydrolysis by recombinant PTPRF phosphatase; details: read-out: PTPRF IC50; untitled table after Table 4; mean, SEM in wrapped line
recombinant PTPRD = recombinant PTPRD (Homo sapiens, UniProt P23468); test: pNPP hydrolysis by recombinant PTPRD phosphatase; details: read-out: PTPRD IC50; untitled table after Table 4; mean, SEM in wrapped line; compounds with PTPRD IC50 <5 μM
PTPRS = PTPRS (Homo sapiens, UniProt Q13332); test: pNPP hydrolysis by recombinant PTPRS phosphatase; details: read-out: PTPRS IC50; untitled table after Table 4; mean, SEM in wrapped line

Protein sequences, listed by entry. Tags and fused reporters are not part of them. Residues count along the entry.
UniProt Q12913, 36-1337 limits assumed: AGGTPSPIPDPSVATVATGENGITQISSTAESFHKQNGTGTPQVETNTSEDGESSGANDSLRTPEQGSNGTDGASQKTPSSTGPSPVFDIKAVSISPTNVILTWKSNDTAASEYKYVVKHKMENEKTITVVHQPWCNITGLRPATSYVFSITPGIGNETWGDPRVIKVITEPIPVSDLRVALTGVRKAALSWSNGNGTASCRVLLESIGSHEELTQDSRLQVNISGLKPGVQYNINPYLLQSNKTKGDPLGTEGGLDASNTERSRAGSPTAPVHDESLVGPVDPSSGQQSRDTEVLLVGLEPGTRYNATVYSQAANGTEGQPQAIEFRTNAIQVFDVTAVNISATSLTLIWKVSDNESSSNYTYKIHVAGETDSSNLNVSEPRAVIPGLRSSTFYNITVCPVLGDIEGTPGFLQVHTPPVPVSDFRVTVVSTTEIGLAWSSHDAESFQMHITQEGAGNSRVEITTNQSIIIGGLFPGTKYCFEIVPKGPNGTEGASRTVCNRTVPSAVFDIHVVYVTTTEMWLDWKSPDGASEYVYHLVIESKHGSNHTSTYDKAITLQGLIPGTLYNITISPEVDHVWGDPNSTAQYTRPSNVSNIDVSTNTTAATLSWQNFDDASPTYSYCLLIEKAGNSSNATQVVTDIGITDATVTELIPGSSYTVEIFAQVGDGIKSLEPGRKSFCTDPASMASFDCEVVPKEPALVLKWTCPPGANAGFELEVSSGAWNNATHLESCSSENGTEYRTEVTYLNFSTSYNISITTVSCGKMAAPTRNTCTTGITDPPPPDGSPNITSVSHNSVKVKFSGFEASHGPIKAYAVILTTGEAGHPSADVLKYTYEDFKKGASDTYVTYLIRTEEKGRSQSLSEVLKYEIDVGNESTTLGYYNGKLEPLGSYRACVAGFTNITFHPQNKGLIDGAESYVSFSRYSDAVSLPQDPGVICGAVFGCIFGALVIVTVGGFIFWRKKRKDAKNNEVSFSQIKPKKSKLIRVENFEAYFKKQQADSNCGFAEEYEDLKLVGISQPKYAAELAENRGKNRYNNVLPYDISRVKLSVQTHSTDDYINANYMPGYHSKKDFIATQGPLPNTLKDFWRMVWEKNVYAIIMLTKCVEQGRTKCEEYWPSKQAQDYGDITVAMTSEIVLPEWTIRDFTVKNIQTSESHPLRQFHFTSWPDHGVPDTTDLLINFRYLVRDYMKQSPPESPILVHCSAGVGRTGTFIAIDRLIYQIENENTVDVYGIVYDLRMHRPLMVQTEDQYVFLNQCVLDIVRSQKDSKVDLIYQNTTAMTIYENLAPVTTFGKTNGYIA
UniProt P10586, 30-1907 limits assumed: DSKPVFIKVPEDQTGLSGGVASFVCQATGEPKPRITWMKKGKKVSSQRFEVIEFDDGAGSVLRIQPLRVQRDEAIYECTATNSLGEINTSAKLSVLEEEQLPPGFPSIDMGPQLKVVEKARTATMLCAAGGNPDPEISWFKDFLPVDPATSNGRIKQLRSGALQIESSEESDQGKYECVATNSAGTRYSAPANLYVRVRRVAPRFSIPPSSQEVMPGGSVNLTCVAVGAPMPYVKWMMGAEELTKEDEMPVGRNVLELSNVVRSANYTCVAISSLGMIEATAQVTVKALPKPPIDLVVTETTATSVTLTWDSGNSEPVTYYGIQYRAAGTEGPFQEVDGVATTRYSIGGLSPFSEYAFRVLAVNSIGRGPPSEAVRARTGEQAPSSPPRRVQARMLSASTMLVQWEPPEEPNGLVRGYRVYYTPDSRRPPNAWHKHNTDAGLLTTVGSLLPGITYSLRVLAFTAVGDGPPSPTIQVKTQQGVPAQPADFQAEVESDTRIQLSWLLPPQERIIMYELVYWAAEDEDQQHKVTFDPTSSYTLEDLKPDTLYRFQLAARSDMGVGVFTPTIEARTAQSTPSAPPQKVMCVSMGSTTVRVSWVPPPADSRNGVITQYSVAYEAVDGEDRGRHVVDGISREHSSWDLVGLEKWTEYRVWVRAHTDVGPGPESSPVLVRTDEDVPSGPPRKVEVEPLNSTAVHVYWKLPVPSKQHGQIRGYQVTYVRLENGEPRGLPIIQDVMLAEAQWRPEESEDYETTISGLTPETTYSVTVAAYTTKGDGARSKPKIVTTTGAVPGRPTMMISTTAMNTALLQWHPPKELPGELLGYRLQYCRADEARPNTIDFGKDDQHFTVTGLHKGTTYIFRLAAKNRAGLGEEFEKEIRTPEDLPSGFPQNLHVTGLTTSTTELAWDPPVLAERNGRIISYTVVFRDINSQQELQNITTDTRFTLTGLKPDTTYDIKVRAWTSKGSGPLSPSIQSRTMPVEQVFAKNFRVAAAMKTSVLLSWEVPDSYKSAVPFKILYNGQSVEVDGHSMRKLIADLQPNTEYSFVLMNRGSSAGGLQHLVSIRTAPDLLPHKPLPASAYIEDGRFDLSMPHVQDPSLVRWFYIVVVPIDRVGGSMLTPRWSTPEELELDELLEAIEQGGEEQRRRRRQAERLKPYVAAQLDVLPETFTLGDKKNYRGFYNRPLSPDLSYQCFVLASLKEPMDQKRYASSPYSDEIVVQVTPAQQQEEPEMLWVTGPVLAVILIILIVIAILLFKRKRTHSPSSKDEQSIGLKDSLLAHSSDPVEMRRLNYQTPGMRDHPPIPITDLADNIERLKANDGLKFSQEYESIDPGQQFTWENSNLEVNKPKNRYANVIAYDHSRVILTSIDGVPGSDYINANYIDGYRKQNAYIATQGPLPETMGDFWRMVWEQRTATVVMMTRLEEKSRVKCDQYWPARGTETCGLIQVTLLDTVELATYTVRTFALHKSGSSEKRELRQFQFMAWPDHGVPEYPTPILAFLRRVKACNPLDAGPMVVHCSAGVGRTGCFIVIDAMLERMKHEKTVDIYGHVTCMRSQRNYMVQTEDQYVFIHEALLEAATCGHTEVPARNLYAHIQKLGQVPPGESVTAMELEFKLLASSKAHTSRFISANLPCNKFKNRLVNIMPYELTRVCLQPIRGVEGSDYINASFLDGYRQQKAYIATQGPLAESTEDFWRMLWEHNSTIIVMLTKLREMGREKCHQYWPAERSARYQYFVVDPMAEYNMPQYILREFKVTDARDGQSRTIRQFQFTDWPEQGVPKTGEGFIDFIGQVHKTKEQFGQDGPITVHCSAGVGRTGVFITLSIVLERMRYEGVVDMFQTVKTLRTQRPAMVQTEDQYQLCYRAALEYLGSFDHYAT
UniProt P23468, 21-1912 limits assumed: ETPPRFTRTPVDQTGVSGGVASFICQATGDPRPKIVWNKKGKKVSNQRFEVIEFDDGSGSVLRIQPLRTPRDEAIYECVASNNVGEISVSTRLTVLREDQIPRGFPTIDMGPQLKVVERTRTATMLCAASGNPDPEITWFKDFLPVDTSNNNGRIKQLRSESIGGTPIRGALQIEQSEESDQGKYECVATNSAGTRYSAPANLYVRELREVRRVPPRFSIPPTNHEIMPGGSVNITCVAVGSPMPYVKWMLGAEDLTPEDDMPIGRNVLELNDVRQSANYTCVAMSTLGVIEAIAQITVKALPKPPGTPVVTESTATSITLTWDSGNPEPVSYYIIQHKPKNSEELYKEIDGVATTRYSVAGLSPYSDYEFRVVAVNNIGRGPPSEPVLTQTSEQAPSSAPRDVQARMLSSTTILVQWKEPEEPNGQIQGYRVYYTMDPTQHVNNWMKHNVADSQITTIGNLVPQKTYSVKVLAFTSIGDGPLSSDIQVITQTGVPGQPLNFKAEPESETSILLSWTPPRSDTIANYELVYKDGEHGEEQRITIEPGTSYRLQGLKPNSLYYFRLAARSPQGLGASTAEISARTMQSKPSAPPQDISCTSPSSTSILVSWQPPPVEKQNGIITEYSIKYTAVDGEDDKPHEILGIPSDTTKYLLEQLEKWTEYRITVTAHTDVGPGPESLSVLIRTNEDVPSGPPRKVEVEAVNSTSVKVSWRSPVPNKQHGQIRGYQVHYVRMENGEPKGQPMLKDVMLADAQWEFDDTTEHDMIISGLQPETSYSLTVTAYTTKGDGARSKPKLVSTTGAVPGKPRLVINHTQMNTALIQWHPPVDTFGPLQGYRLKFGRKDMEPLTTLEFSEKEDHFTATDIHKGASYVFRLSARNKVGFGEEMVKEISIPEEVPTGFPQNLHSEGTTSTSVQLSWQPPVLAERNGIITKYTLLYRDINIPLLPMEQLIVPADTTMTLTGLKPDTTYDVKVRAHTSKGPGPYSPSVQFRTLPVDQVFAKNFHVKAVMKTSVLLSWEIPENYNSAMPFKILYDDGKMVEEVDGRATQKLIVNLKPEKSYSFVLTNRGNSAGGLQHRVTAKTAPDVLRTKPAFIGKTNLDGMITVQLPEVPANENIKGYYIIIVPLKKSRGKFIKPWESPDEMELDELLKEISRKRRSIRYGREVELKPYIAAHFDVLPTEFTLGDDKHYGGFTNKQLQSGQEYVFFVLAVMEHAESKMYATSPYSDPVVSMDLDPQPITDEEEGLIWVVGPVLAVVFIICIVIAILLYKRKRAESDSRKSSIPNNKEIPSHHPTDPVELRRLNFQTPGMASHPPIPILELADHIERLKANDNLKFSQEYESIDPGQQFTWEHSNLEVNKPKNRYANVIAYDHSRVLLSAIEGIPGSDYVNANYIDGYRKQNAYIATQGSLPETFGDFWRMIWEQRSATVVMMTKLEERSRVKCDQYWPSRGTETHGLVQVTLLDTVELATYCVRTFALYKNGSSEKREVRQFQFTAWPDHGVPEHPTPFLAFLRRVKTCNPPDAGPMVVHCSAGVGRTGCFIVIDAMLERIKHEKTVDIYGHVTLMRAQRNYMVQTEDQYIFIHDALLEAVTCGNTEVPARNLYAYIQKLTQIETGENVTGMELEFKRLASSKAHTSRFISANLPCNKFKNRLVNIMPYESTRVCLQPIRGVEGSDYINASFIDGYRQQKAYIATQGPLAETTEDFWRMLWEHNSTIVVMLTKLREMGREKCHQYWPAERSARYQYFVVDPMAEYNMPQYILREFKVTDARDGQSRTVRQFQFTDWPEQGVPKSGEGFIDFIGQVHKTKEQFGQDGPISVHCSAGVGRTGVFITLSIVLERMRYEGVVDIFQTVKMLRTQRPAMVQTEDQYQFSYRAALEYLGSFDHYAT

COc1c(OCC23CC(C2)C3)cc2c(c1C=O)CC(O)OC2=O (stereo not shown)
IC50 (PTPRJ): 21 µM | IC50 (PTPRF): 3.55 µM | IC50 (recombinant PTPRD): 3.36 µM | IC50 (PTPRS): 2.09 µM
